Structures are written as SMILES.

Chains of the proteins cited; added tags and fusions are not shown.
UniProt Q9AIU0, whole entry E78A: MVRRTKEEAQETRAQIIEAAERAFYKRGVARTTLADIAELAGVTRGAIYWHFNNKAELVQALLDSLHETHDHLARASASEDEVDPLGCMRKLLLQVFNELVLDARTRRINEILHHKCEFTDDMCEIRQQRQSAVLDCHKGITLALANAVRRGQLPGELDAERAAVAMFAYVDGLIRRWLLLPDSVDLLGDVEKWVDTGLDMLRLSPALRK
UniProt Q9AIU0, whole entry N110A: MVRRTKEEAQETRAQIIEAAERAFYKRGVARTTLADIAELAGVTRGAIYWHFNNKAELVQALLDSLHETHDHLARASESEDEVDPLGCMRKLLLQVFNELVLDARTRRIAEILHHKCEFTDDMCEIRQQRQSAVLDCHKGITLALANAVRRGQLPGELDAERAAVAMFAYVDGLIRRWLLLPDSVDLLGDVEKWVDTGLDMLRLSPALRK
UniProt Q9AIU0, whole entry H114A: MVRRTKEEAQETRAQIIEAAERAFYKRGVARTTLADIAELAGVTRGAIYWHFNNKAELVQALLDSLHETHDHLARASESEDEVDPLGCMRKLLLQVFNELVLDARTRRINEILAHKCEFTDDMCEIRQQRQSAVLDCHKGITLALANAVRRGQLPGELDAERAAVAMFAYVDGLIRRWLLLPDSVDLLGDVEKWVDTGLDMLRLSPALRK

As usually defined, the Kd is the constant that tells how readily two partners part at equilibrium.

Assay [1] concerns the target T1, TtgR (TtgR^WT) (Pseudomonas putida, UniProt Q9AIU0).
T1 construct: homodimer
Briefly: isothermal titration calorimetry, one set of sites. In kind it is binding. (Isothermal titration calorimetry measures the heat released or taken up as one component is titrated into another.)

Assay [2] addresses TtgR (TtgR^WT) (Pseudomonas putida, UniProt Q9AIU0, E78A). Briefly: biochemical. The source says:
(§1) isothermal titration calorimetry, one set of sites on TtgR (TtgR^WT)

In assay [3] the target is TtgR (TtgR^WT) (Pseudomonas putida, UniProt Q9AIU0, N110A). Briefly: biochemical.
From the text: as §1

Assay [4] concerns the target TtgR (TtgR^WT) (Pseudomonas putida, UniProt Q9AIU0, H114A). Briefly: biochemical.
From the text: as §1

In the case of `O=C1C[C@@H](c2ccc(O)cc2)Oc2cc(O)cc(O)c21` [naringenin], the equilibrium dissociation constant (Kd) came out at 16 ± 2 µM at TtgR (TtgR^WT) [1], 21.8 ± 0.6 µM on TtgR (TtgR^WT) [2], 18.1 ± 1 µM on TtgR (TtgR^WT) [3] and 22 ± 0.8 µM on TtgR (TtgR^WT) [4].

For the origin of these results see PMC4589371, “Molecular Binding Mechanism of TtgR Repressor to Antibiotics and Antimicrobials” (PLoS ONE, 2015).
